# The entries are a selection whose mix differs from that of the whole data set. The source made the active and inactive calls.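 Rule for the calls: active = inhibition above a set limit, 3 SD over the mean compound inhibition (cut at about 44% in these data); inactive = the rest.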
# Assay: BB579 yeast growth reduction, restrictive medium – S. cerevisiae, yeast lifespan-shortening project, primary screen (AID 804)
# Settings: OD615, 48 h, at 10 µM, active compounds read high
row,Compound,inhibition
1,O=P1(Nc2ccccn2)COc2ccccc2OC1,inactive: 11.3%
2,Clc1n[nH]nc1-c1nn[nH][15n]1,inactive: -1%
3,Cc1nn(-c2ccccc2)c2c1P(=O)(N1CCOCC1)N(C)C(c1ccccc1)=N2 (stereo not drawn),inactive: -32.9%
4,O=P1(Nc2ncccn2)COc2ccccc2OC1,inactive: -56.8%
5,Cc1ccc(OCC(=O)OC2CN3CCC2CC3)cc1 (stereo not drawn),inactive: -60.3%
6,O=P1(Nc2ccc(Br)cn2)COc2ccccc2OC1,inactive: -34%
7,CCOP1(=S)c2c(C)nn(CCC#N)c2N=C(c2ccccc2F)N1C (stereo not drawn),inactive: -29%
8,O=P(Nc1nccs1)(c1ccccc1)c1nc2ccccc2s1 (stereo not drawn),inactive: 7.07%
9,O=[N+]([O-])c1ccc2c(c1)nnn2O,inactive: -35.8%
10,CCOP1(=S)c2c(C)nn(CCC#N)c2N=C(c2ccc(F)cc2)N1C (stereo not drawn),inactive: -13.1%
11,Cc1cccc(OCC(=O)OC2CN3CCC2CC3)c1 (stereo not drawn),inactive: -44.6%
12,Cc1ccc(NCCc2c([N+](=O)[O-])cc([N+](=O)[O-])cc2[N+](=O)[O-])cc1,inactive: -67.1%
13,COc1cc(C2NCCC3(OCCO3)C2(C)C)cc(OC)c1OC (stereo not drawn),inactive: 6.47%
14,CCOP(=O)(Nc1cccc2ccccc12)OCC,inactive: -62.8%
15,O=C(OC1CN2CCC1CC2)C12CC3CC(CC(C3)C1)C2 (stereo not drawn),inactive: -51.4%
16,Cc1c2c(nc3ccccc13)SC(C(Cl)Cl)C2 (stereo not drawn),inactive: -2.79%
17,Cc1ccc2nc3c(c(C)c2c1)CC(C(Cl)Cl)S3 (stereo not drawn),inactive: -8.72%
18,ClCCSc1nnc(-c2cccnc2)o1,inactive: -0.48%
19,CCN(CC)C(=S)SC(NC=O)C(Cl)(Cl)Cl (stereo not drawn),inactive: -35.4%
20,O=[N+]([O-])c1cc([N+](=O)[O-])c(-c2ccn[nH]2)s1,active: 76.4%
21,Cc1cc(SC(NC(=O)c2ccccc2)C(Cl)(Cl)Cl)nc(C(C)C)n1 (stereo not drawn),inactive: -33.5%
22,COP1(=S)c2c(C)nn(CCC#N)c2N=C(c2ccc(F)cc2)N1C (stereo not drawn),inactive: -49.4%
23,O=C(COc1ccccc1)OC1CN2CCC1CC2 (stereo not drawn),inactive: -17.1%
24,CCC(C)N(CC(C)C)C(=S)SC(NC(C)=O)C(Cl)(Cl)Cl (stereo not drawn),inactive: -14.9%

row,Compound,inhibition
1,CC(=O)N1C2C3N(C(C)=O)C1C1N(C(C)=O)C(C(N1C(C)=O)N3C(C)=O)N2C(C)=O,inactive: 3.31%
2,O=[N+]([O-])c1cccc2n[nH]nc12,inactive: -51.5%
3,CCc1nc2c(n1)c1c(non1O)c1c2no[n+]1[O-],inactive: -3.68%
4,CN(C)C(=O)OCCc1n(C)cc[n+]1C,inactive: -15.9%
5,CC1CCN(C(=O)Oc2c(Cl)cc(Cl)c3cccnc23)CC1,inactive: -14.7%
6,Cc1cc(SC(NC(=O)c2ccc(F)cc2)C(Cl)(Cl)Cl)ncn1 (stereo not drawn),inactive: -26.4%
7,CCOP(=O)(Nc1ccccc1)OCC,inactive: -68.8%
8,CCN(N=Nc1nonc1N)c1nonc1N,inactive: -19.1%
9,CN1CCCC(OC(=O)C(c2ccccc2)c2ccccc2)C1 (stereo not drawn),inactive: 2.24%
10,CC(C)CC(=O)NC(Sc1ccc(Cl)cc1)C(Cl)(Cl)Cl (stereo not drawn),inactive: -53.5%
11,Oc1ccccc1CNc1ccccn1,inactive: -11.9%
12,O=C(NC(Sc1ccncn1)C(Cl)(Cl)Cl)c1ccccc1 (stereo not drawn),inactive: -43%
13,Cc1c2non([O-])c-2c(C)[n+](=O)[n+]1[O-],inactive: -3.26%
14,O=P1(Nc2nc3ccc(Cl)cc3s2)COc2ccccc2O1 (stereo not drawn),inactive: 7.56%
15,CCOC(=O)NC(Sc1ccccc1)C(Cl)(Cl)Cl (stereo not drawn),inactive: 8.94%
16,COC(=O)c1cc2c(s1)N=C(c1ccccc1)N(C)P2(=O)N1CCOCC1 (stereo not drawn),inactive: -11.2%
17,CC(=O)NC(SC(=S)N(CC(C)C)CC(C)C)C(Cl)(Cl)Cl (stereo not drawn),inactive: -17%
18,CCC(=O)N1C2C3N(C(=O)CC)C1C1N(C(=O)CC)C(C(N1C(=O)CC)N3C(=O)CC)N2C(=O)CC,inactive: -5.42%
19,CC(=O)NC(SC(=S)N(C)C)C(Cl)(Cl)Cl (stereo not drawn),inactive: 27.8%
20,C(Cc1nn[nH]n1)Cc1nn[nH]n1,inactive: -41.9%
21,O=C(OC1CN2CCC1CC2)c1cccc(Cl)c1 (stereo not drawn),inactive: -22.3%
22,O=P(Nc1nccs1)(c1ccccc1)c1ccccc1,inactive: -34.2%
23,CC(C)C(=O)NC(Sc1ccccc1)C(Cl)(Cl)Cl (stereo not drawn),inactive: -0.93%
24,c1nnnn1CCn1cnnn1,inactive: -55.3%

# Source: PubChem BioAssay AID804 (SRMLSC, 2007)
